From US11419944B2, “Non-linear self-immolative linkers and conjugates thereof” (priority 2016, dated 2022) come the findings set out here.

The assay relates to HER2-positive cell line SK-BR-3. Kind of assay: In vitro cytotoxicity of anti-HER2 ADCs. In kind it is cell-based, human. The settings on record: relative IC50.

Substance “Trastuzumab-LD1: wild-type trastuzumab conjugated to linear linker-drug compound 1 (vc-seco-DUBA) [reference compound]” gave an IC50 of 0.18 nM.
